Test results reported in PubChem BioAssay AID463082 (The Scripps Research Institute Molecular Screening Center, 2010).
Only a part is listed here, and it is no random draw. Calls of active or inactive are those of the source.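 How the source made its calls: active means inhibition above the mean inhibition across the screen plus 3 SD (cut at about 25% in these data); inactive means the rest.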

The chains behind the UniProt entries cited, without tags or fusion partners.
UniProt Q13093, whole entry: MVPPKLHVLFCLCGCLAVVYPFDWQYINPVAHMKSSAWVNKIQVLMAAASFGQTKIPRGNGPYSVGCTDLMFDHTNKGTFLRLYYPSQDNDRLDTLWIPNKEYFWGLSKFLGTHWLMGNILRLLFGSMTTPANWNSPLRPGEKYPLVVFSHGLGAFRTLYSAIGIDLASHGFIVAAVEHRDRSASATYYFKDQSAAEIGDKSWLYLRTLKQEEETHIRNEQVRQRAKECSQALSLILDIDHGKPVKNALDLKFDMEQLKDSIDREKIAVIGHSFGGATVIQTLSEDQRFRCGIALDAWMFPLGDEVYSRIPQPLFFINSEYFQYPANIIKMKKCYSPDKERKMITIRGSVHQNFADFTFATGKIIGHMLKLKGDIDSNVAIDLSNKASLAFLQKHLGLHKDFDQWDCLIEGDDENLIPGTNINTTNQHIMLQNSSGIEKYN

biological target: Platelet-activating factor acetylhydrolase (Homo sapiens) (UniProt Q13093); assay: inhibition of plasma PAF acetylhydrolase – biochemical, fluorescence polarization, human, primary screen (AID 463082); conditions: recombinant pPAFAH, FP-rhodamine probe fluorescence polarization; at 3.39 µM; hits give high values;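 further: inhibitors block binding of the rhodamine activity-based probe so polarization drops; 0% = enzyme with DMSO and 100% = wells lacking pPAFAH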

Compound | inhibition
CCC(=O)N(c1ccccc1)C1(COC)CCN(CCn2nnn(CC)c2=O)CC1 | inactive: -1.4%
CCC(=O)N(c1ccccc1)C1(COC)CCN(CCc2cccs2)CC1 | inactive: -5.03%
